Key:
Jurkat = assay: Inhibition of cell proliferation, CellTiter-Glo, 72 hour; format: cell-based; settings: read-out: Inhibition of Proliferation of Jurkat Cells, Blood cancer cell line
Description: The following cancer cell lines were tested with the media conditions indicated: […]

Amino acid sequences for entries named in this document (tags omitted).
UniProt P50613, whole entry: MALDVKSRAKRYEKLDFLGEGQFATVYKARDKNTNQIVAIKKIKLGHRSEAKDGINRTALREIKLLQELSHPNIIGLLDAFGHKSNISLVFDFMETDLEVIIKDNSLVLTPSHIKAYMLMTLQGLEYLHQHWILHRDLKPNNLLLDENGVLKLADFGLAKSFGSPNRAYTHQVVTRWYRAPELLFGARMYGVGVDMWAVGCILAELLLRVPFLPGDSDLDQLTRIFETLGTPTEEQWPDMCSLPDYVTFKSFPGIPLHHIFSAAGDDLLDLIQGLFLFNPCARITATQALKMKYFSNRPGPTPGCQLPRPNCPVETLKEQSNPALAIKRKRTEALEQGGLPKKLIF
UniProt P51946, whole entry partner: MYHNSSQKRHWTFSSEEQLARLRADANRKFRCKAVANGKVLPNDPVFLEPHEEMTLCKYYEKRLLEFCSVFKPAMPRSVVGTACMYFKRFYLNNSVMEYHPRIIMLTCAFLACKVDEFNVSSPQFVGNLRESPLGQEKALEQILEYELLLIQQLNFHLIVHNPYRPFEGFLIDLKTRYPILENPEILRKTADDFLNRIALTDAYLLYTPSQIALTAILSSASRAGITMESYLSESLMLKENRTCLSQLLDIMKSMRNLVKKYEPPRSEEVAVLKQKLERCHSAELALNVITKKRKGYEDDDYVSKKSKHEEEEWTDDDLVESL
UniProt P51948, whole entry partner: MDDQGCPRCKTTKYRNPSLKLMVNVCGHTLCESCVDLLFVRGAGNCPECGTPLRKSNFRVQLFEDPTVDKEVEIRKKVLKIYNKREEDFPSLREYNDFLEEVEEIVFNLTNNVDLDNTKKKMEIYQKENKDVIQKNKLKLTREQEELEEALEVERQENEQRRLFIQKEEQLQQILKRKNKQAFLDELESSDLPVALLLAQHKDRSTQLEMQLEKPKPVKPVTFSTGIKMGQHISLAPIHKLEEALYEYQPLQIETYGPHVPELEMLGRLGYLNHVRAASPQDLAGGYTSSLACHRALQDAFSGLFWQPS

CDK7 = CDK7 (Homo sapiens, UniProt P50613); assay: Adapta kinase assay (Life Technologies) against CDK7, co-factors cyclin H and MNAT1; settings: read-out: CDK7 Inhibition

SMILES | IC50 (Jurkat) | IC50 (CDK7)
CN(C)C/C=C/C(=O)NCCCCC(=O)Nc1cccc(Nc2ncc(Cl)c(-c3c[nH]c4ccccc34)n2)c1 | 500 to 5000 nM | < 100 nM
COc1ccc(Cn2c(-c3ccc(N)cc3)nc3cc(Nc4ncc(Cl)c(-c5c[nH]c6ccccc56)n4)ccc32)cc1 | 500 to 5000 nM | 100 to 1000 nM
Nc1ccc(-c2nc3ccc(Nc4ncc(Cl)c(-c5c[nH]c6ccccc56)n4)cc3o2)cc1 | > 5000 nM | > 1000 nM
Nc1ccc(C(=O)NCCCNc2ncc(Cl)c(-c3c[nH]c4ccccc34)n2)cc1 |  | 100 to 1000 nM
Nc1ccc(C(=O)N2CCC(Nc3ncc(Cl)c(-c4c[nH]c5ncccc45)n3)CC2)cc1 | 500 to 5000 nM | < 100 nM
CN(C)CCCC(=O)Nc1ccc(CN2CCC(Nc3ncc(Cl)c(-c4c[nH]c5ccccc45)n3)CC2)cc1 | 500 to 5000 nM | 100 to 1000 nM
CN(C)CCCC(=O)N(C)c1cccc(CN2CCC(Nc3ncc(Cl)c(-c4c[nH]c5ccccc45)n3)CC2)c1 | > 5000 nM | 100 to 1000 nM
NCCCCC(=O)Nc1cccc(Nc2ncc(Cl)c(-c3c[nH]c4ccccc34)n2)c1 | 500 to 5000 nM | < 100 nM
CN(C)CCCC(=O)Nc1cccc(Nc2ncc(Cl)c(-c3c[nH]c4ccccc34)n2)c1 | 500 to 5000 nM | < 100 nM
CC(C)(CNC(=O)c1ccc(N)cc1)CNc1ncc(Cl)c(-c2c[nH]c3ccccc23)n1 | > 5000 nM | > 1000 nM
CN(C)C/C=C/C(=O)NCCC(=O)Nc1cccc(Nc2ncc(Cl)c(-c3c[nH]c4ccccc34)n2)c1 [Compound 131, (E)-N-(3-(3-(5-chloro-4-(1H-indol-3-yl)pyrimidin-2-ylamino)phenylamino)-3-oxopropyl)-4-(dimethylamino)but-2-enamide] | 500 to 5000 nM | < 100 nM
Cc1cnc(NC2CCN(C(=O)c3ccc(N)cc3)CC2)nc1-c1c[nH]c2ccccc12 | < 500 nM | < 100 nM
CN(C)C/C=C/C(=O)N(C)Cc1ccc(CN2CCC(Nc3ncc(Cl)c(-c4c[nH]c5ccccc45)n3)CC2)cc1 | < 500 nM | < 100 nM
CN(C)C/C=C/C(=O)NCc1ccc(CN2CCC(Nc3ncc(Cl)c(-c4c[nH]c5ccccc45)n3)CC2)cc1 | 500 to 5000 nM | < 100 nM
CN(C)C/C=C/C(=O)Nc1cccc(Nc2ncc(Cl)c(-c3c[nH]c4ccccc34)n2)c1 | 500 to 5000 nM | < 100 nM
Nc1ccc(C(=O)N2CCC(Nc3ncc(C4CC4)c(-c4c[nH]c5ccccc45)n3)CC2)cc1 |  | > 1000 nM
